Values quoted from earlier work, collected in patent publication US20240002438A1, “MELANOCORTIN LIGANDS AND METHODS OF USE THEREOF” (REGENTS OF THE UNIVERSITY OF MINNESOTA, priority 2021, published 2024).

The chains behind the UniProt entries cited, without tags or fusion partners. Where a name states a change or a piece, a line headed by the entry shows the natural chain unless it says otherwise.
UniProt P33032: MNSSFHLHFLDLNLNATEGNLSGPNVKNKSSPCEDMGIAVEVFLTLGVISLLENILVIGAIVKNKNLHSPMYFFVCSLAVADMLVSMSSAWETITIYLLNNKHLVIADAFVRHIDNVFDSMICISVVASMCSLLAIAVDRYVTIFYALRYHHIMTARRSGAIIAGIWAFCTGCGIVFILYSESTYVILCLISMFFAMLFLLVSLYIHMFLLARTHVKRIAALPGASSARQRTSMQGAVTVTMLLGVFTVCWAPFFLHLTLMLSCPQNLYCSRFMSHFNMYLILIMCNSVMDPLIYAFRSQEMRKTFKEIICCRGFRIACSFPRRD

Target: MC5R (Homo sapiens, UniProt P33032)
Conditions: Grieco 2002; cited from earlier work

For “Ac-Nle-c[Asp-Pro-DNal(2′)-Arg-Trp-Lys]-NH2 [PG901]”, the “agonist potency at the hMC5R” value is listed as “sub-nanomolar”.
